According to US8785396B2, “Method and composition for treating migraines” (Mannkind Corporation, priority 2007, dated 2014):

Experiment: Sumatriptan pharmacokinetics in female Sprague Dawley rats
Conditions: rat, in vivo, 0.358 mg

Tmax (iv): 2 min
Tmax (sc): 5 min
half-life (sc): 36.6 min
Compound: CNS(=O)(=O)Cc1ccc2[nH]cc(CCN(C)C)c2c1 [Sumatriptan, sumatriptan]
